The results in this text go back to paper PMC3236198.

For this test, the target named is T1, Single stranded DNA binding protein from Escherichia coli (EcoSSB) (Escherichia coli), P0AGE0.
T1 chain: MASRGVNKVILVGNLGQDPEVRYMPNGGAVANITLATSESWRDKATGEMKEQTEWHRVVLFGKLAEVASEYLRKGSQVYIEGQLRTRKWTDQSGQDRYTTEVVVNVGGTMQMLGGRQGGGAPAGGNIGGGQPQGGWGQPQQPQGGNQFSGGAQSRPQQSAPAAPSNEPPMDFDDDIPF
The experiment in a line: SEC; Superose 6HR 10/30, 20 mM Tris.HCl pH 8.0, 500 mM NaCl, 0.1 mM Na2EDTA; 10–200 µg of SSB loaded; oligomeric status from a plot of Ve/Vo versus log of molecular size markers. Conditions: remark: other sources report otherwise.

B1: Single stranded DNA binding protein from Escherichia coli (EcoSSB), P0AGE0 1-178 (natural protein)
chain: MASRGVNKVILVGNLGQDPEVRYMPNGGAVANITLATSESWRDKATGEMKEQTEWHRVVLFGKLAEVASEYLRKGSQVYIEGQLRTRKWTDQSGQDRYTTEVVVNVGGTMQMLGGRQGGGAPAGGNIGGGQPQGGWGQPQQPQGGNQFSGGAQSRPQQSAPAAPSNEPPMDFDDDIPF
As to B1, the stoichiometry N came to 4.

One may read the stoichiometry N as the number of molecules, sites or subunits per partner or assembly.
